Experimental data taken from patent US4298739A, “Novel carbostyril derivatives” (priority 1977, dated 1981).

Biological target: T1, cyclic AMP phosphodiesterase (Oryctolagus cuniculus, UniProt G1ST54)
T1 construct: the supernatant was collected to use it as a crude enzyme solution; from tissue; host or cells: rabbit platelets (from platelet-rich plasma), 100,000 xg supernatant, DEAE-cellulose fraction
T1 sequence (G1ST54 1-1128): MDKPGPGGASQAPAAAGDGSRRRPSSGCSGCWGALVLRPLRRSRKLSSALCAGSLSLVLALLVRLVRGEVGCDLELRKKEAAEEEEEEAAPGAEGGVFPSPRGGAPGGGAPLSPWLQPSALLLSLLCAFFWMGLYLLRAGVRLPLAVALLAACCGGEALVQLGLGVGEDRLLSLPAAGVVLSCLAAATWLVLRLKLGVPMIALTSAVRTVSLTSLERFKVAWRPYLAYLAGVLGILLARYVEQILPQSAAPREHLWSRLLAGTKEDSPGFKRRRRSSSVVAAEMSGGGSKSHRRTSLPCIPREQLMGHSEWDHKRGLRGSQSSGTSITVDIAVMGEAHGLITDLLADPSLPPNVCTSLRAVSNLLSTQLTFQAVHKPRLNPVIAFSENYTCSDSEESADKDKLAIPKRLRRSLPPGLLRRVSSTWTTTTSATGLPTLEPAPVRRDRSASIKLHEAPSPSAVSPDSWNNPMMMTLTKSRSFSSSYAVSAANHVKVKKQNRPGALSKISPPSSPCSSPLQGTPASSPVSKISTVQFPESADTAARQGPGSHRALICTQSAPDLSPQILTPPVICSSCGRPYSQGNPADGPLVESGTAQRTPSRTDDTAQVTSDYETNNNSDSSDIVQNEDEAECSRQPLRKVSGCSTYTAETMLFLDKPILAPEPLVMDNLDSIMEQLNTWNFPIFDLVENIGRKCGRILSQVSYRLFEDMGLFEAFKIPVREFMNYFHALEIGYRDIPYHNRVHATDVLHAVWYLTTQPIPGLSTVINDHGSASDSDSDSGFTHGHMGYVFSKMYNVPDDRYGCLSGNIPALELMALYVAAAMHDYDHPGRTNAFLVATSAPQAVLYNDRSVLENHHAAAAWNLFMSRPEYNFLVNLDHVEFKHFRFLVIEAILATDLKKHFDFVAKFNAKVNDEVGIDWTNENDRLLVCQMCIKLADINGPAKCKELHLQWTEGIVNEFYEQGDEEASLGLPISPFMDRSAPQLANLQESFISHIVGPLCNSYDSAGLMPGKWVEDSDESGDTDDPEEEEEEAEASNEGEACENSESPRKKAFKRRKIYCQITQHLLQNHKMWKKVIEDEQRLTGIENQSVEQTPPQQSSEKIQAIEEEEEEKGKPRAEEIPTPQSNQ
Test: Obstructive action against cyclic AMP phosphodiesterase
Assay type: biochemical, rabbit
Conditions: pH 8, read-out: phosphodiesterase obstruction rate
Protocol: The obstructive action against cyclic AMP phosphodiesterase was measured according to the activity measuring method described in "Biochimica et Biophysica Acta", Vol. 429, pp. 485-497 (1976) and "Biochemical Medicine", Vol. 10, pp. 301-311 (1974).
That is, for determining the obstructive activity against cyclic AMP phosphodiesterase, 10 ml of a solution obtained by adding 1 mmol of MgCl2 into 50 mmol of tris-hydrochloric acid buffer with pH 7.4 was added to the platelets obtained by further centrifuging the abovesaid rabbit PRP at 3,000 r.p.m. for 10 minutes, and the suspended platelets were ground by a Teflon potter type homogenizer. This was followed by two times of freezing and thawing treatment and 300-second fracturing with 200 watt supersonic waves. After additional 60-minute centrifugation with 100,000 xg, the supernatant was collected to use it as a crude enzyme solution.
10 Milliliters of this crude buffer solution was added to a 1.5×20 cm DEAE-cellulose column which has previously been buffered with 50 mmol of tris-acetate buffer (pH 6.0), followed by washing and elution with 30 ml of 50 mmol tris-acetate buffer, and this buffer solution was subjected to linear gradient elution with 0 to 0.5 moles of sodium acetate-tris-acetatebuffer. The flow rate was 0.5 ml/min, and 5 ml of each fraction was batched out. […] This fraction was used as cyclic AMP phosphodiesterase.
0.1 Milliliter of an aqueous solution of each test compound of a specified concentration was mixed with 40 mmol of tris-hydrochloric acid buffer (pH 8.0, containing 50 μg of cow serum albumin and 4 mmol of MgCl2) containing predetermined 1.0 μmol of cyclic AMP (tritium cyclic AMP), and 0.2 ml of this mixed solution was used as substrate solution. […]
The reaction system was then immersed in boiling water for 2 minutes to stop the reaction, and then this reaction solution was cooled in ice water and, for converting the produced tritium 5'-AMP into tritium adenosine, the solution was added with 0.05 ml (1 mg/ml) of snake poison as 5'-nucleotidase and reacted at 30° C. for 10 minutes. […] The whole quantity of the elutant was added with 10 ml of a triton-toluene type scintillator and the produced tritium adenosine was measured by a liquid scintillation counter to determine the phosphodiesterase activity.
In this way, the phosphodiesterase activation value (Vs) of the test compounds of the respective concentrations was determined, and the phosphodiesterase obstruction rate (%) was determined from said activation value (Vs) and control value (Vc) (obtained from water not containing any test compound) from the following formula: [formula]

With `COc1ccc(Cc2nccc3cc(OC)c(OC)cc23)cc1OC` [Papaverine, papaverine, reference compound] the inhibition at 0.1 µM was 57.3%, the inhibition at 1 µM was 91.4% and the inhibition at 10 µM was 99.8%. For the same compound, the inhibition at 100 µM was 100%.
